Consider one compound from US20120058135A1, “Identification and characterization of racemases, definition of protein signatures, and a test for detecting D-amino acid and for screening molecules capable of inhibiting the activity of racemase, especially proline racemase” (Institut Pasteur, priority 2010, published 2012).

By UniProt entry, the sequences of proteins in these tests, tags left out. Where a name states a change or a piece, a line headed by the entry shows the natural chain unless it says otherwise.
UniProt P00371: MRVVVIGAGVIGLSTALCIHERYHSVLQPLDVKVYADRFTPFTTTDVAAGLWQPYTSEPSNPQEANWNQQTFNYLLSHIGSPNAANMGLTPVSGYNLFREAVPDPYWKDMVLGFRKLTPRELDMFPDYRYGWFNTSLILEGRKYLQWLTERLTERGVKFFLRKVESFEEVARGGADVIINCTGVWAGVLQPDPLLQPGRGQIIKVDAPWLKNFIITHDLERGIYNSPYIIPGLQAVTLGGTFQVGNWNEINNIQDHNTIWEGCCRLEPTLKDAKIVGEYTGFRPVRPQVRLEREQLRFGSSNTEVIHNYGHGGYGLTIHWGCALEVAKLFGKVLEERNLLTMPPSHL

The test deals with T1, D-AAO (Sus scrofa, UniProt P00371).
T1 construct: purchased Sigma A-5222; host or cells: swine kidney
The test can be described thus: D-AAO microplate test for detection of D-amino acids. Format: biochemical, swine. The settings on record: 0.05 mM, raw OD. An excerpt:
The D-AAO/HRP test described here above can also be used for this purpose with slight modifications. For that purpose, the racemase reaction step should be skipped and the microplate test should start straightforward at the II-1-2.1-2 step described above with the following remarks:
1) Standard: It should not be an equimolar mixture of D- and L-amino acid, but rather a serial dilution of D-Amino acids. The choice of amino acid is made according to the interest of the D-amino acid under investigation. The final volume in wells should be of 87 μl.
2) Negative control: It is made with the L-enantiomer of the D-amino acid under investigation. The final volume should be 87 μl.
3) Blank: It is made with 87 μl buffer*. (See paragraph II.1.1 Materials.)
4) Samples: The samples to be tested should be adjusted to pH 8.3 with buffer* and their final volumes should be of 87 μl per well.
5) Then, the procedure follows steps 3) to 6), as above.
Different L- and D-amino acids were tested, namely Tyrosine (Tyr), Valine (Val), Threonine (Thr), Glutamic acid (Glu), Lysine (Lys) and Tryptophan (Try).

In the case of `O=C(O)[C@H]1CCCN1` [D-pro, D-Proline], the “Optical density at 490 nm after D-AAO reaction” value stood at 0.159.
